Assays:
ΔFosB = test: Western blotting of ΔFosB in brain regions after METH withdrawal; type: in vivo, rat; conditions: mirtazapine treatment group, day 31; data not shown
METH-sensitized rats = test: Reversal of METH-induced behavioral sensitization by 5-HT2A/2C antagonists (motor activity after acute METH challenge); conditions: rat, in vivo
Description: Automation of observational evaluations was accomplished using computerized small animal monitors (AccuScan Instr. Inc., Columbus, Ohio). […] One feature of drug-induced behavioral sensitization is heterogeneity of motor responses and the AccuScan monitors quantify numerous behavioral indices. This is a critical point for the motor profile is exquisitely related to METH dose, the drug history of the rat and observation time. After 3- or 31-days of withdrawal from repeated METH injections, rats were allowed to achieve baseline motor activity with a 30 min habituation period, challenged with 1 mg/kg sc METH and monitored for 90 min. As shown in FIGS. 1a-b, a “sensitized” motor response was clearly expressed in the METH-pretreatment group to the METH challenge at the 3-day withdrawal period for both Horizontal Activity and Stereotypy Counts (data not shown) and with slight early effects on Vertical Movements.
Multiple 5-HT2A/2C antagonists with differing pharmacological profiles were tested for their ability to ameliorate METH-induced behavioral sensitization when administered after sensitization has developed. […]. The doses were selected based on the antagonists' ability to block 5-HT2A- and 5-HT2C-mediated activity and their pharmacokinetic profiles. […]

## CN1CCN2c3ncccc3Cc3ccccc3[C@@H]2C1 (racemic) [mirtazapine, 1,2,3,4,10,14b-hexahydro-2-methyl-pyrazino[2,1-a]pyrido[2,3-c]benzazepine]
ΔFosB
  ΔFosB signal in the nucleus accumbens: loss of increased ΔFosB early signal

## CN1CCN2c3ccccc3Cc3ccccc3C2C1 (centres unmarked) [mianserin]
METH-sensitized rats
  number of vertical movements: appeared to have an independent effect

— US20060035889A1, “Treatment for methamphetamine addiction and reduction of methamphetamine use using serotonin antagonists” (priority 2004, published 2006)
